From ChEMBL document CHEMBL3232915, “Discovery, optimization, and characterization of novel D2 dopamine receptor selective antagonists” (J Med Chem, 2014) come the findings set out here.

Molecules are shown by their SMILES.

One series has as its system Mus musculus. Nature of the series: Ratio of drug level in brain to plasma in C57BL/6 mouse at 30 mg/kg, ip administered as single dose.
For another series, the system named is CHO. Nature of the series: Ratio of AC50 for ProLink-tagged D3 receptor (unknown origin) expressed in CHO cells to AC50 for ProLink-tagged D2 receptor (unknown origin) expressed in CHO cells by beta-arrestin assay. Type of series: cell-based. The following applies: Homo sapiens.
The next series deals with HEK293. Nature of the series: Ratio of Ki for human D3 receptor expressed in HEK293 cell membrane to Ki for human D2L receptor expressed in HEK cell membrane. It is filed as cell-based. A digest of the protocol: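 Competition binding with [3H]methylspiperone on membranes from stable HEK cells. […] Incubation 90 min at room temperature in EBSS with sodium metabisulfite, nonspecific binding with 4 µM (+)-butaclamol, then GF/C filtration and scintillation counting. Ki from IC50 via Cheng–Prusoff.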

Take `CN1C(=O)c2ccccc2[S@+]([O-])c2ccc(C(=O)NCCc3cccs3)cc21`: the BPR with Mus musculus came out at 0.181. Also, the Ratio in the series on CHO was found to be 17.8. The Ratio Ki in the series on HEK293 turned out to be 41.

For `CN1C(=O)c2ccccc2[S+]([O-])c2ccc(C(=O)NCCc3cccs3)cc21` (racemic), the Ratio with CHO came out at 22.3. Also, in the series with HEK293, the Ratio Ki turned out to be 48.4.
